## Apparent affinities of Ab-14 variants for a coronavirus HR2 peptide

Values reported by Li et al. 2023, doi:10.1038/s41467-023-39022-2 (FLAb copy).

All variants were tested on one target, the spike HR2 peptide PDVDLGDISGINAS (SARS-CoV-2).

Parent: Ab-14, a human scFv built as VH, three GGGGS repeats, VL. Only the CDRs of the heavy chain vary.
VH: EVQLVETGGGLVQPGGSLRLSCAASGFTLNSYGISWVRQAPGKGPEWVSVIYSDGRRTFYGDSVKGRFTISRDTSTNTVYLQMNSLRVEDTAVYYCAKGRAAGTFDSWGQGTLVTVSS
VL: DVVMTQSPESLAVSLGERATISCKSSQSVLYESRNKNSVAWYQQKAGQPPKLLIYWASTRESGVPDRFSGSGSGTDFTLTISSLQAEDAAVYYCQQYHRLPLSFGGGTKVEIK

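These sequences belong to a second round, designed from the earlier measurements on random variants of the parent. Several design methods are mixed in this list. The assay is AlphaSeq: two haploid yeast populations carry antibody and antigen on their surface. Binding brings cells together so that they mate, and sequencing counts the barcode pairs among the diploids. The ratio of observed to expected reads was calibrated, replicate by replicate, on BCL2-family standards whose Kd was known from biolayer interferometry. There are six technical replicates.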

Each variant is given by its three heavy chain CDRs, as the data file delimits them; those of the parent are GFTLNSYGIS, VIYSDGRRTFYGDSVK, GRAAGTFDS. Each Kd is an estimate from the mating assay, the geometric mean of the replicates in which the pair was seen; lower is stronger. "not detected" marks a missing value. The strain was present, yet no cells mated with the target were sequenced in any replicate, which points to weak or no binding. The range of this assay differs from that of the first round, and the authors advise against merging the two. Nonspecific signal, from three strains lacking the peptide, appeared in 1% of pairings of all heavy chain designs, centred on 120 nM (5% of these signals below 7.0 nM); values are not corrected for it. The control count says in how many pairings with the empty strains this scFv gave a signal. A sequence that the file lists under several names has all its replicates pooled. In the paper, a design with two or fewer of six values counts as a poor binder.

apparent Kd	replicates with signal	empty controls	CDR-H1	CDR-H2	CDR-H3
1.9 nM	4 of 6	0 of 18	GFDLDEYGIS	VIYADGMRTQYADSVK	GENAGTFDV
600 pM	6 of 6	0 of 18	GFDLNEYGIS	VIYADGRRTAYQDSVK	GEAAGTFDS
4.2 nM	6 of 6	0 of 18	GFDLNSYGIS	VIYSDGRRTYYGDSVK	GRAAGTFDS
23 nM	6 of 6	0 of 18	GFDIDEYGIS	VIYADGMRTFYTDSVK	GEAAGTFDT
1.7 nM	6 of 6	0 of 18	GFDLNSYGIS	VIYSDGRRTFYGDSVK	GKNAGTFDS
570 pM	6 of 6	0 of 18	GFDLEDYGIS	VIYADGRRTAYADSVK	GEEAGTFDL
52 nM	5 of 6	0 of 18	GFDLDEYGIS	VIYADGQRTAYTDSVK	GNTAGTFDV
79 nM	6 of 6	0 of 18	GFTINSYGIS	VIYSDGRRTFYSDSVK	GRAAGTFDS
830 pM	6 of 6	0 of 18	GFDLNEYGIS	VIYADGMRTFYTDSVK	GEFAGTFDI
1.2 nM	6 of 6	2 of 18	GFELNSYGIS	VIYADGRRTFYGDRVK	GQAAGTFDV
not detected	0 of 6	0 of 18	GETLNSYGIS	VIYSDGRRTFYDDDVK	GRAAHTFSS
550 pM	6 of 6	0 of 18	GFDLNEYGIS	VIYADGRRTAYADDVK	GNNAGTFDL
not detected	0 of 6	0 of 18	GFSLNDYGIS	VIYSDGRRTFYGDSVK	GRNAGTFIS
not detected	0 of 6	0 of 18	GFTLNEYGIS	VIYSDGRRTFYGDSVK	GRAAGTLDT
not detected	0 of 6	0 of 18	GFTLNSYGIS	VIYSDGRRTFYGDSVK	GSGAGTFDI
25 nM	1 of 6	0 of 18	EFDLNEYGVS	VIYADGHRTFYADHVK	GTEAGVFTI
5.8 nM	6 of 6	0 of 18	GFDLNSYGIS	VIYSDGKRTFYVDSVK	GRQAGTFDS
6.5 nM	6 of 6	0 of 18	GFSLNEYGIS	VIYSDGRRTMYGDSVK	GRCAGTFDS
280 pM	6 of 6	0 of 18	GFDINEYGIS	VIYADGMRTFYADSVK	GQTAGTFDV
68 nM	3 of 6	0 of 18	GFDIQDLGIS	VIYADGQRTAYSDGFK	GIIAGTFNI
3.0 nM	6 of 6	0 of 18	GFTLNSYGIS	VIYSDGRRTFYGDSVK	GSEAGTFDS
240 pM	6 of 6	1 of 18	GFSLDEYGIS	VIYADGRRTFYADSVK	GNVAGTFDA
1.1 nM	6 of 6	0 of 18	GFDLNEYGIS	VIYADGMRTAYSDNVK	GQTAGTFDV
1.8 nM	6 of 6	0 of 18	GFTLNEYGIS	VIYSDGRRTFYGDSVK	GSQAGTFDS
29 nM	6 of 6	0 of 18	KFSLNDYGIS	VIYSDGRRTFYGDSVK	GWTAGTFDS
not detected	0 of 6	0 of 18	GPNLEEYGIS	VIYADGIRTAYKDSVK	GQVAGIGKF
not detected	0 of 6	0 of 18	GFDLNSYGIS	VIYSDGRRTFYGDSVK	GRAAVTFDS
370 pM	6 of 6	0 of 18	GFDLDEYGIS	VIYADGMRTAYSDNVK	GQVAGTFDV
not detected	0 of 6	0 of 18	GFTLNSYGIS	VIYSDGRRTFYSDSVK	GVAADTFDS
6.5 µM	1 of 6	1 of 18	GFDLNEYGIS	VIYADGRRTFYADSVK	GNNAGTFIM
not detected	0 of 6	0 of 18	GFTLNSYGIS	VIYSDGRRTFYGDSVK	GRIIGTFDS
4.8 nM	5 of 6	0 of 18	GFDLNSYGIS	VIYSDGRRTFYADRVK	GRNAGTFDS
310 pM	6 of 6	0 of 18	GFDLDEYGIS	VIYADGKRTAYQDSVK	GNVAGTFDV
1.3 nM	5 of 6	0 of 18	GFNLNSYGIS	VIYSDGRRTFYDDSVK	GQVAGTFDS
340 pM	6 of 6	0 of 18	GFDLDEYGIS	VIYADGRRTFYADSVK	GEEAGTFDI
not detected	0 of 6	0 of 18	GFTLNSYGIS	VIYSDGRRQFYGDSVK	GRAAGTFDS
5.9 nM	11 of 12	1 of 36	GFTLNSYGIS	VIYSDGRRTFYSDSVK	GDAAGTFDS
3.4 nM	6 of 6	0 of 18	GFDLNSYGIS	VIYSDGRRTEYGDSVK	GRTAGTFDS
not detected	0 of 6	0 of 18	GETLNSYGIS	VIYSDGRRTFYGDEVK	GHAAGTFDS
530 pM	6 of 6	0 of 18	GFDLDEYGIS	VIYADGSRTAYADSVK	GNNAGTFDV
1.0 nM	6 of 6	0 of 18	GFDLNEYGIS	VIYADGRRTFYSDSVK	GENAGSFDV
66 nM	6 of 6	0 of 18	GFTLNEYGIS	VIYSDGRRTFYTDRVK	GQFAGTFDS
not detected	0 of 6	0 of 18	GFSLNEYGIS	VIYADGKSRHYADSVK	GLESGFFDI
not detected	0 of 6	0 of 18	GFTLNEYGIS	VIYSDGRRTFYTDSVK	GRFAGTFWS
not detected	0 of 6	0 of 18	GFDINEMGIS	VIYADGQRLAYAQEVK	GENTGTFTF
520 pM	6 of 6	0 of 18	GFDLNEYGIS	VIYADGKRTAYADNVK	GNNAGTFDV
3.9 nM	6 of 6	1 of 18	GFTINSYGIS	VIYSDGRRTFYSDSVK	GRTAGTFDS
6.5 nM	5 of 6	0 of 18	GFPLNSYGIS	VIYSDGRRTFYADSVK	GQLAGTFDS
not detected	0 of 6	0 of 18	GFPLNLFGIS	VIYSDGRRTFYGDSVK	GRAAGTFDS
not detected	0 of 6	0 of 18	GFNLNSYGIS	RIYSDGRRTFYGDSVA	VRAAGTFHS
24 nM	6 of 6	1 of 18	GFTLNEYGIS	VIYSDGSRTFYTDSVK	GRFAGTFDS
140 pM	5 of 6	0 of 18	GFDLNEYGIS	VIYADGRRTAYSDSVK	GNNAGTFDQ
280 pM	6 of 6	0 of 18	GFDLNEYGIS	VIYADGKRTFYSDSVK	GNLAGTFDV
not detected	0 of 6	0 of 18	GFTLNSYGIS	VIYSDGKRTFYSDSVK	GRAMGTFDT
1.5 nM	6 of 6	0 of 18	GFDLNEYGIS	VIYADGRRTAYADSVK	GNNAGTFDS
370 nM	4 of 6	0 of 18	GFTLNSYGIS	VIYSDGRRTFYGDSVK	GRCAGTFDS
500 pM	6 of 6	1 of 18	GFDLNEYGIS	VIYADGRRTFYADSVK	GKVAGTFIQ
93 nM	1 of 6	0 of 18	GFSLNSYGIS	VIYSDGRRTMYGDSVK	GQAAGTFDS
360 pM	6 of 6	0 of 18	GFDLNEYGIS	VIYADGRRTAYIDSVK	GHAAGTFDI
190 nM	1 of 6	0 of 18	GFTLNSYGIS	VIYSDGRRTFYGDSVK	GREAQTFDS
2.8 nM	6 of 6	0 of 18	GFNLNSYGIS	VIYSDGRRTFYADRVK	GHEAGTFDS
570 pM	6 of 6	0 of 18	GFDLDEYGIS	VIYADGVRTAYADNVK	GEVAGTFDL
730 pM	6 of 6	0 of 18	RFTLNEYGIS	VIYSDGRRTFYTDSVK	GRNAGTFDS
3.6 nM	5 of 6	0 of 18	GFGLNEYGIS	VIYSDGRRTFYGDSVK	GREAGTFDN
330 pM	6 of 6	1 of 18	GFDLNEYGIS	VIYADGMRTAYADNVK	GENAGTFDM
2.3 nM	4 of 6	0 of 18	GFELNEYGIS	VIYSDGRRTFYGDSVK	GKNAGTFDS
330 pM	6 of 6	0 of 18	GFDLNEYGIS	VIYADGRRSYYADSVK	GQNAGTFDV

7 of these entries, quoted again:

CDR-H1	CDR-H2	CDR-H3	apparent Kd	replicates with signal	empty controls
GFSLNSYGIS	VIYSDGRRTMYGDSVK	GQAAGTFDS	93 nM	1 of 6	0 of 18
GFDLNSYGIS	VIYSDGRRTFYGDSVK	GKNAGTFDS	1.7 nM	6 of 6	0 of 18
GFDINEYGIS	VIYADGMRTFYADSVK	GQTAGTFDV	280 pM	6 of 6	0 of 18
GFPLNSYGIS	VIYSDGRRTFYADSVK	GQLAGTFDS	6.5 nM	5 of 6	0 of 18
GFDLNSYGIS	VIYSDGRRTEYGDSVK	GRTAGTFDS	3.4 nM	6 of 6	0 of 18
GFDLNEYGIS	VIYADGRRSYYADSVK	GQNAGTFDV	330 pM	6 of 6	0 of 18
GFGLNEYGIS	VIYSDGRRTFYGDSVK	GREAGTFDN	3.6 nM	5 of 6	0 of 18